Experimental data taken from the SangsterLogP compilation.

Assay: method code SF-TN, from DOI: 10.3891/acta.chem.scand.05-0774

## CC(O)C(=O)O (stereo unspecified)
  logP: -0.62
